# Measured values reported in EP3409278B1, “HETEROCYCLIC PROTEIN KINASE INHIBITORS” (Tolero Pharmaceuticals, Inc., priority 2011, dated 2013).
# Chains of the proteins cited; added tags and fusions are not shown.
# UniProt P11309, whole entry: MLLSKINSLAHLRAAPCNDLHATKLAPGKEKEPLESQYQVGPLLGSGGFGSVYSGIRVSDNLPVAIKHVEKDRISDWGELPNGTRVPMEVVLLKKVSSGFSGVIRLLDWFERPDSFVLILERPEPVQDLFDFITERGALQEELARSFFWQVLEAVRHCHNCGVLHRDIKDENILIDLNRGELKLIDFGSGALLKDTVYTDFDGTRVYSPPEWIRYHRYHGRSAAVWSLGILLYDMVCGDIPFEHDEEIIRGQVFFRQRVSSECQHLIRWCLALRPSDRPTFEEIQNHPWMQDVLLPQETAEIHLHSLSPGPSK
# Target: Pim-1 kinase (Homo sapiens, UniProt P11309)
# Experiment: Pim-1 kinase inhibition assay (Promega Kinase-Glo)
# Assay type: biochemical
SMILES,IC50,other results
"CO[C@H]1CC[C@H](Nc2ccc3nnc(-c4cccc(C(F)(F)F)c4)n3c2)CC1 [8-106, 4-(trans-Methoxycyclohexy/)-3-(3-(trifluoromethyl)phenyl)-[1,2,4]triazolo[4,3-a]pyridin-6-amine]",–,"IC50 (Table V, Kinase-Glo, 10uM ATP, read-out: IC50 on Pim1): 518 nM"
CS(=O)(=O)N[C@H]1CC[C@H](Nc2ccc3ncc(-c4cccc(Cl)c4)n3n2)CC1 [8-80],–,"IC50 (Table IV, Kinase-Glo, 10uM ATP, read-out: IC50 on Pim1): 52 nM"
"CN1CCC(O)(CNc2ccc3ncc(-c4cccc(OC(F)(F)F)c4)n3n2)CC1 [8-22, 1-Methyl-4-(((3-(3-(trifluoromethoxy)phenyl)imidazo[1,2-b]pyridazin-6-yl)amino)methyl)piperidin-4-ol]",41 nM,–
"O[C@H]1CC[C@H](Nc2ccn3ncc(-c4cccc(Cl)c4)c3n2)CC1 [8-61, 4-((3-(3-Chlorophenyl)pyrazolo[1,5-a]pyrimidin-5-yl)amino)-trans-cyclohexanol]",237 nM,–

# Like-named read-outs stand apart in the source and are kept apart here.
